{"sequences": {"note": "Amino acid sequences for entries named in this document (tags omitted). A change or cut given only in a name is not applied to a line headed by its entry.", "UniProt P33535, whole entry": "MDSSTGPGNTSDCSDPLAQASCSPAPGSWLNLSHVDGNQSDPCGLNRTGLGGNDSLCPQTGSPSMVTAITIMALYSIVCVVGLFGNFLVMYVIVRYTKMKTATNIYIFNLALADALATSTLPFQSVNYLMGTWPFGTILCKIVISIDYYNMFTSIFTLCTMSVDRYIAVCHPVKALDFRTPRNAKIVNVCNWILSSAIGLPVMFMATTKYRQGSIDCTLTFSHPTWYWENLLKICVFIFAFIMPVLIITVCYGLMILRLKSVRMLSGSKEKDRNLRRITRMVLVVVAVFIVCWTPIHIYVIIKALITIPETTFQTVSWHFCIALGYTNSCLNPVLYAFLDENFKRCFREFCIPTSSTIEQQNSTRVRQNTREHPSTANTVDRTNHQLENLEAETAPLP", "UniProt P33534": "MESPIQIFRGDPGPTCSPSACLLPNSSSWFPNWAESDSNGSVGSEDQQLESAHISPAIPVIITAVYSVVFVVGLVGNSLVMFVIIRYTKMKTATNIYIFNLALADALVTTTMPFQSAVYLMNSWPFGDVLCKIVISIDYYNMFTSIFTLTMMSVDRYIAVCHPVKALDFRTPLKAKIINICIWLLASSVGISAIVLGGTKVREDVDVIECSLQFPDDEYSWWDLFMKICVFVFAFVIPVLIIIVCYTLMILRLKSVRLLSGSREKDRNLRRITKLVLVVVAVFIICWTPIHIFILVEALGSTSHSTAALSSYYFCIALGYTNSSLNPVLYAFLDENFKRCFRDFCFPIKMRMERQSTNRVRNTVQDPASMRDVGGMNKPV", "UniProt P35372, whole entry": "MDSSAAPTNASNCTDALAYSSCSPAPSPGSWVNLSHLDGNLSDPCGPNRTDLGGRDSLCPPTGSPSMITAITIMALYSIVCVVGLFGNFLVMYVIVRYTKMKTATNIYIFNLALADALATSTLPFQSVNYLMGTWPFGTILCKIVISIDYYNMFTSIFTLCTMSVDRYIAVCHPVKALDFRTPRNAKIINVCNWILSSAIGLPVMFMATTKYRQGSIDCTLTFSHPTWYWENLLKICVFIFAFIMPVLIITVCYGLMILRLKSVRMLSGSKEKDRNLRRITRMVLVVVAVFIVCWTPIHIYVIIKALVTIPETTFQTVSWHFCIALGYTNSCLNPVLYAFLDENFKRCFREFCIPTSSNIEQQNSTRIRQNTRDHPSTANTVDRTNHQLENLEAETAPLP"}, "source": "patent US7235366B1", "about": "(priority 1993, dated 2007)", "assay_in_all_cases": "biochemical", "key": {"[1]": {"molecular_target": "cloned rat μ receptor (Rattus norvegicus, UniProt P33535)"}, "[2]": {"molecular_target": "cloned mouse κ receptor (Mus musculus, UniProt P33534)"}, "[3]": {"molecular_target": "T1, cloned human μ opioid receptor (Homo sapiens, UniProt P35372)", "T1 construct": "This fragment includes the entire coding region of the human μ opioid receptor; expressed in transfected cells; host or cells: COS-7 (transient, pcDNA3)", "type": "binding"}}, "note": "Read-outs that look alike come from different tables or passages of the source."}
{"smiles": "C[C@@H](NC(=O)[C@@H](N)Cc1ccc(O)cc1)C(=O)NCC(=O)N(C)[C@@H](Cc1ccccc1)C(=O)NCCO", "note": "[DAMGO, [D-Ala2,MePhe4,Gly-ol5]enkephalin]", "values": [{"measurement": "Ki", "setting": "[1]", "value": 2, "unit": "nM"}]}
{"smiles": "CC(C)=CCN1CCC2(C)c3cc(O)ccc3CC1C2C", "note": "(centres unmarked) [pentazocine]", "values": [{"measurement": "Ki", "setting": "[2]", "value": 7.2, "unit": "nM"}]}
{"smiles": "CCC12CCN(CC3(O)CC3)C(Cc3ccc(O)cc31)C2(C)C", "note": "(racemic) [Bremazocine]", "values": [{"measurement": "Ki", "setting": "[3]", "value": 1.4, "unit": "nM"}]}
{"smiles": "CN1CC[C@]23CCCC[C@H]2[C@H]1Cc1ccc(O)cc13", "note": "[Levorphanol]", "values": [{"measurement": "Ki", "setting": "[3]; read-out: Binding potencies (Ki-nM) for the cloned human μ opioid receptor [^3H] DAMGO", "value": 1.9, "unit": "nM"}]}
{"smiles": "C[C@@H](NC(=O)[C@@H](N)Cc1ccc(O)cc1)C(=O)NCC(=O)N(C)[C@@H](Cc1ccccc1)C(=O)NCCO", "note": "[[^3H]DAMGO]", "values": [{"measurement": "Kd", "setting": "[1]", "value": 0.57, "unit": "nM"}]}
